Literature values in patent US20200069786A1, “COMPOSITION AND PROCESS FOR PREPARING VACCINE” (TREOS BIO ZRT., priority 2018, published 2020).
Where two headings read alike, the source gives them in different places.

How the values were obtained:
[1] = test system: subjects of 64 clinical studies; details: published clinical trials; proportion of subjects in the study population with T cell responses induced by the study vaccine; cited from earlier work
TSA = details: cited from earlier work

Row | Substance | IRR [1] [%] | TSA Expression Rate (ER) (TSA; BRAIN) [%] | TSA Expression Rate (ER) (TSA; BREAST) [%] | TSA Expression Rate (ER) (TSA; HCC) [%] | TSA Expression Rate (ER) (TSA; LUNG) [%] | TSA Expression Rate (ER) (TSA; OVARIAN) [%] | TSA Expression Rate (ER) (TSA; PANCREATIC) [%] | TSA Expression Rate (ER) (TSA; THYROID) [%] | Expression Rate (ER) % (TSA; TSA expression rate in BLADDER cancer) [%] | Expression Rate (ER) % (TSA; TSA expression rate in CRC) [%] | Expression Rate (ER) % (TSA; TSA expression rate in Cervical cancer) [%] | Expression Rate (ER) % (TSA; TSA expression rate in Esophageal) [%] | Expression Rate (ER) % (TSA; TSA expression rate in GASTRIC cancer) [%] | Expression Rate (ER) % (TSA; TSA expression rate in HEAD and NECK) [%] | Expression Rate (ER) % (TSA; TSA expression rate in Kidney) [%] | Expression Rate (ER) % (TSA; TSA expression rate in MELANOMA) [%] | Expression Rate (ER) % (TSA; TSA expression rate in PROSTATE cancer) [%]
1 | Her2/neu peptide vaccine (p369) | 62 | – | – | – | – | – | – | – | – | – | – | – | – | – | – | – | –
2 | KOC1 | – | 38 | 8 | 66 | 62 | 43 | 54 | 65 | 20 | 65 | 68 | 74 | 52 | 29 | 22 | 46 | 0
